PubChem BioAssay AID651658 (Broad Institute, 2012)
The entries are a selection whose mix differs from that of the whole data set. Active and inactive are the calls of the source.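 How the source made its calls: active means mean Tm shift, scaled 0 neutral to 100 positive control, at about 1.3% or above, every replicate too (limit read from the data); inconclusive means no clear call, values can overlap the other calls; inactive means the rest.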

Chains of the proteins cited; added tags and fusions are not shown. Lines headed by an entry give the natural chain unless they say otherwise; changes in a name come on top.
UniProt Q9HCT0: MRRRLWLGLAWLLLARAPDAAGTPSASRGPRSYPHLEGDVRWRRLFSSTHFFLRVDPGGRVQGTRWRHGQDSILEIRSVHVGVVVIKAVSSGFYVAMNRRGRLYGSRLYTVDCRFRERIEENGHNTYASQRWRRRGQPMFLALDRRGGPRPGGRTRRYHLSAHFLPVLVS

The molecules below were run against Fibroblast growth factor 22 (Homo sapiens) (UniProt Q9HCT0) (assay: binders of human FGF22 protein, primary screen, FGF22 synaptogenesis inhibitor project, biophysical, thermal shift, single point (AID 651658)). Settings: recombinant FGF22 thermal shift, SYPRO orange fluorescence; at 9.99 µM; hits give high values; percent of sucrose octasulfate shift, DMSO zero.

With `COc1ccc(N)c([N+](=O)[O-])c1[N+](=O)[O-]` as the molecule, how does the activity (Tm shift, normalised) read?
The activity (Tm shift, normalised) was active: 43.2%.

With `Nc1ccc(CCCCOc2ccccc2)cc1` as the molecule, how does the activity (Tm shift, normalised) read?
Its activity (Tm shift, normalised) is active: 1.64%.

Which activity (Tm shift, normalised) does the source give for `O=c1c2cc([N+](=O)[O-])ccc2[nH]c2c([N+](=O)[O-])cc([N+](=O)[O-])cc12` here?
The activity (Tm shift, normalised) was active: 43.1%.

Which activity (Tm shift, normalised) does the source give for `COP(=O)(OC)N1CC1c1ccccc1` (stereo not given) here?
Its activity (Tm shift, normalised) is active: 43.7%.

Which activity (Tm shift, normalised) does the source give for `Cc1ccc(S(=O)(=O)N(CCCN)CCCc2c(C)nc(N)[nH]c2=O)cc1` here?
Its activity (Tm shift, normalised) is active: 2.19%.
